In patent publication US20260306453A1, “FORMULATIONS CONTAINING TRYPTAMINE DERIVATIVES AND USES THEREOF” (priority 2023, published 2026):
pEC50: −log10 of the molar value.

Chains of the proteins cited; added tags and fusions are not shown.
UniProt P28223, whole entry: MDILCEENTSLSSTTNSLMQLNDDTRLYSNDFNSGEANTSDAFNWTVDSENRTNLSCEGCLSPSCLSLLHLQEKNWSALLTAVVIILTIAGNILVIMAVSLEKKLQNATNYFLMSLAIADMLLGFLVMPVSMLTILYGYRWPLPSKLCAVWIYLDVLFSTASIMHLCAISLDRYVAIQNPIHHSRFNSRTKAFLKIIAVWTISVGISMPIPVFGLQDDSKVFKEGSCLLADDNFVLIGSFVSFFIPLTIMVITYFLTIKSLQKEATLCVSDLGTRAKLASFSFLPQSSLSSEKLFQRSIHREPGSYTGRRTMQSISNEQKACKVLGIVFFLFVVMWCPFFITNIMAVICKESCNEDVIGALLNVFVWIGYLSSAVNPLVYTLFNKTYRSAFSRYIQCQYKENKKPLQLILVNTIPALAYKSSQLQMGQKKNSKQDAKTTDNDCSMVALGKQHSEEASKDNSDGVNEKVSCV

Target: 5-HT2A (Homo sapiens, UniProt P28223)
Test: In vitro functional activity, 5-HT2A
Format: biochemical
Conditions: agonism
Excerpt: The functional activity considers agonism vs. antagonism. […] Each of these receptors affects mental health, learning, memory, and more specifically, 5-HT6 is responsible for precognitive effects and neuronal connections, growth, and migration.

`CC(=O)Oc1cccc2[nH]c(Br)c(CCN(C)C)c12` [drawing 18] gave a pEC50 of 6.22.
